scFv variants of Ab-95 (light chain) against a SARS-CoV-2 spike peptide

The measurements come from Engelhart et al. 2022 (doi:10.1038/s41597-022-01779-4) through the FLAb antibody collection.

All variants were tested on one target, the spike HR2 peptide PDVDLGDISGINAS (SARS-CoV-2).

Ab-95 is the parent antibody, in scFv form: VH, then a 15-residue (Gly4Ser)3 linker, then VL. The heavy chain is unchanged in all variants.
VH: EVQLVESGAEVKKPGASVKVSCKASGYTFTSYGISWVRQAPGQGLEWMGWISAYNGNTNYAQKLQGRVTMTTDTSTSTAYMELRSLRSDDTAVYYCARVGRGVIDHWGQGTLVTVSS
VL: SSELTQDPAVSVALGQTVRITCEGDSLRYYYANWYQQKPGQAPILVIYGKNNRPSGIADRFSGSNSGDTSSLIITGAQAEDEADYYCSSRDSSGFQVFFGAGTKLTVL

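The library (AAYL52) carries one to three amino acid substitutions per variant, with no insertions or deletions. Affinity was read by AlphaSeq, a pooled yeast mating assay with surface-displayed partners. Binding brings cells together so that they mate, and sequencing counts the barcode pairs among the diploids. Read counts were normalised to the haploid input and turned into Kd by a linear fit to BCL2-family pairs of known affinity, for each replicate. There are three technical replicates.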

Changes read parent residue, position, new residue, counted from the first residue of the VL shown.
The Kd shown is the geometric mean over detected replicates; a lower Kd is a better binder.
An entry "nd" has no value in the source: the pair was not observed among the diploids in any replicate. This suggests poor binding but is not conclusive.
Background: pairings of library AAYL52 with three empty control strains gave a value in 28% of cases (median 8.2 µM, 5th percentile 800 nM). Values in that range, when seen in few replicates, are hard to tell from nonspecific mating.
In this assay the parent's reference entry averaged 200 nM; its copy inside this library read 180 nM.

The variant R28P+Y31H+N33T gave 430 nM (1 of 3 replicates).
The variant N52Q+R53N gave 620 nM (3 of 3 replicates).
The variant E23M+R90Y gave 17 µM (2 of 3 replicates).
The variant Y30T+N33Q+D91C gave 280 nM (3 of 3 replicates).
The variant Y29F+R90T+G94A gave 1.1 µM (3 of 3 replicates).
The variant G24S+Y30H+S55W gave 200 nM (3 of 3 replicates).
The variant L27V+S93Y+Q96E gave 15 µM (1 of 3 replicates).
The variant N33W+K50Q+D91Q gave 25 µM (1 of 3 replicates).
The variant G24D+D25Y+S26A gave 77 nM (3 of 3 replicates).
The variant G49C+F95E gave nd (0 of 3 replicates).
The variant R90C+D91E+V97N gave 400 nM (3 of 3 replicates).
The variant Y31A+A32E+R53Q gave nd (0 of 3 replicates).
The variant S26E+A32E+S89T gave nd (0 of 3 replicates).
The variant N51M+S93Y+F98T gave 290 nM (2 of 3 replicates).
The variant S92N+S93I+V97T gave 100 nM (3 of 3 replicates).
The variant Y30C+K50D gave 79 nM (3 of 3 replicates).
The variant G24P+Y29H+G49S gave 3.0 µM (2 of 3 replicates).
The variant P54Y+G94R+F95Y gave 840 nM (1 of 3 replicates).
The variant Y31F+S89G+F95N gave 550 nM (3 of 3 replicates).
The variant G24T+R28K+K50N gave 62 nM (3 of 3 replicates).
The variant R28V+R53T+F95K gave 13 µM (3 of 3 replicates).
The variant N33Y+G49V+R90N gave 20 µM (1 of 3 replicates).
The variant D25M+R28Y+Y29L gave 1.5 µM (3 of 3 replicates).
The variant S89M+Q96L gave nd (0 of 3 replicates).
The variant D25K+G94F+Q96L gave 1.4 µM (3 of 3 replicates).
The variant G24L+G49R+P54T gave nd (0 of 3 replicates).
The variant D91E+F98K gave 5.4 µM (2 of 3 replicates).
The variant N33K+R90M+F95M gave nd (0 of 3 replicates).
The variant E23G+R28K+S93L gave 58 nM (3 of 3 replicates).
The variant S92P+F95D gave 200 nM (3 of 3 replicates).
The variant E23R+G24A+R28E gave 340 nM (3 of 3 replicates).
The variant E23I+S26M+Y29H gave 1.3 µM (3 of 3 replicates).
The variant N33Q+K50W+G94S gave 110 nM (3 of 3 replicates).
The variant N51F+S88T+F98R gave 21 µM (2 of 3 replicates).
The variant G24M+R28G+D91H gave 11 µM (1 of 3 replicates).
The variant R28G+K50S+S93I gave 110 nM (3 of 3 replicates).
The variant D25H+N51E+R53I gave nd (0 of 3 replicates).
The variant E23H+F95R+F98N gave nd (0 of 3 replicates).
The variant L27W+K50Y+P54M gave 1.4 µM (2 of 3 replicates).
The variant A32D+K50V+F98T gave 5.8 µM (1 of 3 replicates).
The variant G24C+S89W+S92E gave 790 nM (3 of 3 replicates).
The variant L27M+S55T gave 330 nM (3 of 3 replicates).
The variant Y29K+G49A+D91E gave 30 µM (2 of 3 replicates).
The variant L27S+G49F+S88R gave 2.9 µM (1 of 3 replicates).
The variant R28W+N51H gave 8.1 µM (2 of 3 replicates).
The variant A32F+S55F+S89D gave 7.3 µM (1 of 3 replicates).
The variant E23H+S88C+Q96R gave 1.5 µM (3 of 3 replicates).
The variant D25P+Y29Q+R53Q gave 110 nM (1 of 3 replicates).
The variant S55L+D91F+Q96T gave 400 nM (3 of 3 replicates).
The variant N52P+F95V+F98A gave nd (0 of 3 replicates).
The variant N33L+N51R+S88M gave 74 µM (1 of 3 replicates).
The variant S26K+N52C+S89T gave 33 µM (2 of 3 replicates).

Excerpt, the first 8 entries:

| changes | apparent Kd | seen in |
|---|---|---|
| R28P+Y31H+N33T | 430 nM | 1 of 3 |
| N52Q+R53N | 620 nM | 3 of 3 |
| E23M+R90Y | 17 µM | 2 of 3 |
| Y30T+N33Q+D91C | 280 nM | 3 of 3 |
| Y29F+R90T+G94A | 1.1 µM | 3 of 3 |
| G24S+Y30H+S55W | 200 nM | 3 of 3 |
| L27V+S93Y+Q96E | 15 µM | 1 of 3 |
| N33W+K50Q+D91Q | 25 µM | 1 of 3 |